Here are results for 76 molecules from PubChem BioAssay AID1458 (National Center for Advancing Translational Sciences (NCATS), 2008).

The list shows a part of the results, in another mix than the full data. Results filed as inconclusive are left out. Some structures show a salt or complex split into parts, the way the source records it. Calls of active or inactive are those of the source. Calls follow the shape of the dose curve; as a rule, active = well fitted activation curve with a large enough effect; inconclusive = small, poorly fitted or top-dose-only effect; inactive = no such curve, though single readings can be large or run the other way.

A short description of the assay: qHTS Assay for Enhancers of SMN2 Splice Variant Expression. Also: % of control where 0% means no effect; nearly all actives have a fitted effect of over 55% in size. The settings on record: HEK293 SMN2-luciferase splicing reporter, luminescence, 30-36 h; at 46.1 µM (top of the series) unless noted. For orientation: qHTS replaces the single test concentration by a dilution series.
On to `COc1ccccc1OP(C)(=O)Nc1ccc(C)cc1C` (stereo unspecified), for which the activity change, positive = activation is inactive: 4.9%.
Turning to `CP(=O)(Nc1ccccn1)Oc1ccccc1` (stereo unspecified), the activity change, positive = activation is inactive: -1.4%.
In the case of `Cc1c(NP(C)(=O)Oc2ccc(C(C)C)cc2)c(=O)n(-c2ccccc2)n1C` (stereo unspecified), the activity change, positive = activation was inactive: -16%.
The value for `CN(C)CCOC(=O)C(O)(c1ccccc1)C1CCCC1` (stereo unspecified) was inactive: -6.65%; that for `COc1ccc(OP(C)(=O)Nc2ccccn2)cc1` (stereo unspecified) was inactive: 6.26%.
The value for `CP(=O)(OCCOc1ccccc1)OCCOc1ccccc1` was inactive: 2.37%; that for `CP(=O)(Nc1ccc(Cl)cc1Cl)Oc1ccccc1` (stereo unspecified) was inactive: -12.2%.
The value for `Cc1nc2ccc3ccccc3c2o1.O=[N+]([O-])c1cc([N+](=O)[O-])c(O)c([N+](=O)[O-])c1` was inactive: 10.5%.
For the molecule `COc1ccc(OP(C)(=O)Nc2ccccc2Br)cc1` (stereo unspecified), the activity change, positive = activation was inactive: -10.9%.
The value for `C/C1=C2N=C(/C=C3N=C(/C(C)=C4\[N-][C@@](C)([C@H]5N=C1[C@@](C)(CCC(=O)NC[C@H](C)OP(=O)([O-])O[C@@H]1[C@H](O)[C@H](n6cnc7cc(C)c(C)cc76)O[C@@H]1CO)[C@@H]5CC(N)=O)[C@](C)(CC(N)=O)[C@H]4CCC(N)=O)[C@@](C)(CC(N)=O)[C@@H]\3CCC(N)=O)C(C)(C)[C@@H]/2CCC(N)=O.[C-]#N.[Co+3]` was inactive: -5.65% [at 20.6 µM].
The value for `CP(=O)(OC12CC3CC(CC(C3)C1)C2)OC12CC3CC(CC(C3)C1)C2` was inactive: -9.84%; that for `CCOC(=O)c1ccc(NP(C)(=O)Oc2ccc(Cl)cc2)cc1` (stereo unspecified) was inactive: -8.02%.
The value for `CN(C)C(=O)c1c([N+](=O)[O-])cc([N+](=O)[O-])cc1[N+](=O)[O-]` was inactive: -0.846%.
Take `CP(=O)(Nc1ccc(Cl)cc1)Oc1ccc(F)cc1` (stereo unspecified): the activity change, positive = activation is inactive: -18%.
The value for `CC(C)(C)c1ccc(OP(C)(=O)O)cc1` was inactive: 7.32%.
The value for `CCc1ccc(OP(C)(=O)Nc2cccnc2)cc1` (stereo unspecified) was inactive: -2.89%.
Take `CP(=O)(Oc1ccccc1)N1CCOC1=O` (stereo unspecified): the activity change, positive = activation was inactive: -7.51%.
The value for `OCCSCCO` was inactive: 1.91%.
The value for `COc1ccccc1OP(C)(=O)Nc1c(C)n(C)n(-c2ccccc2)c1=O` (stereo unspecified) was inactive: -13.2%; that for `N#[O+].[C-]#N.[C-]#N.[C-]#N.[C-]#N.[C-]#N.[Fe+2].[Na+].[Na+]` was inactive: -1.28%.
The value for `COc1ccc(OP(C)(=O)Nc2ccc(Br)cc2)cc1` (stereo unspecified) was inactive: 3.68%; that for `CCN(CC)CC(O)COC(=O)C(O)(c1ccccc1)C1CCCCC1` (stereo unspecified) was inactive: 6.25%.
`NNC(NN)NN.n1nc(-c2nn[nH]n2)n[nH]1`: the activity change, positive = activation is inactive: -3.88% [at 9.22 µM].
The value for `[NH4+].[O-][Cl+3]([O-])([O-])[O-]` was inactive: -2.1%; that for `CCN(CCCl)Cc1ccccc1C` was inactive: -27%.
The value for `Cc1ccccc1NP(C)(=O)Nc1ccccc1C` was inactive: 7.61%.
The value for `CP(=O)(Nc1ccc2c(c1)OCCO2)Oc1ccccc1` (stereo unspecified) was inactive: -21.4%.
On to `CCOP(=O)(CC)OCC`, for which the activity change, positive = activation is inactive: 6.8%.
Take `CCOP(C)(=S)SCC(=O)NC(C)(CC)C(=O)O` (stereo unspecified): the activity change, positive = activation was inactive: -31.8%.
The value for `Cc1ccc([N+](=O)[O-])c([N+](=O)[O-])c1` was inactive: 4.11%.
As for `Cc1c([N+](=O)[O-])cccc1[N+](=O)[O-]`, the activity change, positive = activation is inactive: -3.45%.
`CN(C)CCOC(=O)C(O)(c1ccccc1)C1CCCCC1` (stereo unspecified): the activity change, positive = activation is inactive: 10.3%.
The value for `CP(=O)(Nc1ccccc1)Oc1ccc(F)cc1` (stereo unspecified) was inactive: -1.69%; that for `CCN(CC)CCCOC(=O)C(O)(c1ccccc1)C1CCCCC1` (stereo unspecified) was inactive: 6.05%.
The value for `COc1ccc(OP(C)(=O)Nc2ccc(SC(F)(F)F)cc2)cc1` (stereo unspecified) was inactive: 4.96%.
Consider `CCOC(=O)c1ccc(NP(C)(=O)Oc2ccc(F)cc2)cc1` (stereo unspecified), for which the activity change, positive = activation was inactive: -63.7%.
On to `Cc1cccc([N+](=O)[O-])c1[N+](=O)[O-]`, for which the activity change, positive = activation is inactive: 0.795%.
The value for `CCC(C)(OO)OOC(C)(CC)OO` (stereo unspecified) was inactive: 13.9%; that for `O=C(OCCN1CCN(CCOCc2ccccc2)CC1)C(O)(c1ccccc1)c1ccccc1` was inactive: -20.2%.
The value for `CC(C)c1ccc(OP(C)(=O)Nc2ccc(SC(F)(F)F)cc2)cc1` (stereo unspecified) was inactive: -21.7%.
The value for `CP(=O)(Nc1ccccc1F)Oc1ccccc1` (stereo unspecified) was inactive: 9.08%.
Regarding `CP(=O)(Nc1cccc(Br)c1)Oc1ccccc1` (stereo unspecified), the activity change, positive = activation is inactive: -11.6%.
The value for `Cc1cc(C)cc(OP(C)(=O)Nc2ccccn2)c1` (stereo unspecified) was inactive: 4.32%; that for `Cc1ccc(C)c(NP(C)(=O)Oc2ccccc2)c1` (stereo unspecified) was inactive: -3.27%; that for `Cc1cc(C)cc(OP(C)(=O)Nc2ccc(C)cc2C)c1` (stereo unspecified) was inactive: -6.86%.
The value for `CCOC(=O)c1ccc(NP(C)(=O)Oc2cc(C)cc(C)c2)cc1` (stereo unspecified) was inactive: -7.22% [at 1.84 µM].
Take `Cc1ccc([N+](=O)[O-])cc1[N+](=O)[O-]`: the activity change, positive = activation was inactive: -1.5%.
The value for `CC1=NCCc2c1[nH]c1ccccc21.O=[N+]([O-])c1cc([N+](=O)[O-])c(O)c([N+](=O)[O-])c1` was inactive: 7.36%; that for `O=[N+]([O-])c1cccc([N+](=O)[O-])c1` was inactive: 15.9%.
The value for `CP(=O)(Nc1ccc(SC(F)(F)F)cc1)Oc1ccccc1` (stereo unspecified) was inactive: -17.4%; that for `CCCOc1ccc(NP(C)(=O)Oc2ccc(Cl)cc2)cc1` (stereo unspecified) was inactive: -14.5%; that for `COc1ccccc1OP(C)(=O)Nc1c(C)cccc1C` (stereo unspecified) was inactive: -12.1%.
On to `CN1CCCCC1COC(=O)C1(O)c2ccccc2CCc2ccccc21` (stereo unspecified), for which the activity change, positive = activation was inactive: -3.05%.
Consider `Cc1nc2ccc3ccccc3c2s1.O=[N+]([O-])c1cc([N+](=O)[O-])c(O)c([N+](=O)[O-])c1`, for which the activity change, positive = activation is inactive: -0.0653%.
As for `O=[N+]([O-])c1cc([N+](=O)[O-])c(-n2nnc3ccccc32)c([N+](=O)[O-])c1`, the activity change, positive = activation is inactive: 3.03%.
Turning to `CP(=O)(Nc1ccccn1)Oc1ccc(Cl)cc1` (stereo unspecified), the activity change, positive = activation was inactive: -0.767%.
On to `CCOP(C)(=S)SCC(=O)NC(C)C(=O)O` (stereo unspecified), for which the activity change, positive = activation was inactive: -6.45%.
The value for `Cc1cc(C)cc(OP(C)(=O)Nc2ccc(SC(F)(F)F)cc2)c1` (stereo unspecified) was inactive: -6.16%.
The value for `CP(=O)(NC(=O)Nc1ccccc1)Oc1ccccc1` (stereo unspecified) was inactive: 2.99%; that for `CP(=O)(Oc1ccccc1)OC(c1ccccc1)C(F)(F)F` (stereo unspecified) was inactive: -12.1%; that for `[Au].[Au].c1ccc([PH+](c2ccccc2)c2ccccc2)cc1.c1ccc([PH+](c2ccccc2)c2ccccc2)cc1.n1n[nH]c(-c2nnn[nH]2)n1` was inactive: -15.3% [at 9.22 µM].
The value for `Cc1cccc(C)c1OP(C)(=O)Nc1ccc(SC(F)(F)F)cc1` (stereo unspecified) was inactive: -31.2%; that for `COc1ccccc1OP(C)(=O)Nc1ccccc1` (stereo unspecified) was inactive: 1.03%.
Consider `CP(=O)(Nc1ccccc1Br)Oc1ccccc1` (stereo unspecified), for which the activity change, positive = activation was inactive: -3.67%.
For the molecule `CP(=S)(Nn1cnnc1)Oc1ccccc1` (stereo unspecified), the activity change, positive = activation was inactive: 21.4%.
The value for `N1=C(c2nnc(-c3nn[nH]n3)nn2)NNN1` was inactive: -4.86% [at 9.22 µM].
Turning to `COc1ccc(OP(C)(=O)Nc2cccc(F)c2)cc1` (stereo unspecified), the activity change, positive = activation was inactive: -5%.
Regarding `Cc1cc(C)cc(OP(C)(N)=O)c1` (stereo unspecified), the activity change, positive = activation was inactive: 2.74%.
The value for `CCOC(=O)c1ccc(NP(C)(=O)Oc2ccccc2)cc1` (stereo unspecified) was inactive: 1.26%.
The value for `Cc1ccc(NP(C)(=O)Oc2ccccc2)c(C)c1` (stereo unspecified) was inactive: 52.3%.
The value for `COc1ccccc1OP(C)(=O)Nc1ccc(C)cc1` (stereo unspecified) was inactive: -28.1%; that for `Cc1cccc(C)c1OP(C)(N)=O` (stereo unspecified) was inactive: 15.3%; that for `CC(C)(C)c1ccc(OP(C)(=O)Nc2ccc(SC(F)(F)F)cc2)cc1` (stereo unspecified) was inactive: -11.1%.
Regarding `O=[N+]([O-])c1ccc2c(c1)C=Nc1ccccc1O2`, the activity change, positive = activation was inactive: 2.78%.
The value for `O=[N+]([O-])[O-].[NH4+]` was inactive: -10.6%.
Consider `CCN(CC)CCCOC(=O)C(O)(c1ccccc1)c1ccccc1`, for which the activity change, positive = activation is inactive: 26.4%.
